{"sequences": {"note": "Sequences of proteins named here, by UniProt entry; tags and fusion partners are left off. A change or cut given only in a name is not applied to a line headed by its entry.", "UniProt P30542, whole entry": "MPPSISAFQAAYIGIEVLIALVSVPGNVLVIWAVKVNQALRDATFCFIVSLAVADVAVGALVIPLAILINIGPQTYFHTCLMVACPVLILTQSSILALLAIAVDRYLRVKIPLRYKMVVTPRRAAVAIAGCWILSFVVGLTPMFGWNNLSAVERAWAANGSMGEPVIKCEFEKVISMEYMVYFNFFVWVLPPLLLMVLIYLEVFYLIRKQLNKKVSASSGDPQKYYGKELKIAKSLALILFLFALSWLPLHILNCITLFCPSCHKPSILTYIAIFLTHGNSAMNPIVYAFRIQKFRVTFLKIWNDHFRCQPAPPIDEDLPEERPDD"}, "source": "paper PMC5748027", "about": "“Computer-aided design of multi-target ligands at A1R, A2AR and PDE10A, key proteins in neurodegenerative diseases” (Journal of Cheminformatics, 2017)", "key": {"[1]": {"target": "T1, A2A human adenosine receptor (A2AR) (Homo sapiens, UniProt P29274)", "T1 construct": "expressed in transfected cells; host or cells: HeLa", "test": "Radioligand binding competition assay, human A2A receptor in transfected HeLa cells", "settings": "Cheng-Prusoff approximation", "procedure": "(§1) Bioactivity testing was performed using A1 and A2A human adenosine receptors expressed in transfected CHO (A1) and HeLa (A2A) cells, as well as AD293 cells that were transiently transfected with human PDE10A. Table 1 includes the list of synthesized 4,6-substituted 2-amino-pyridin-3-carbonitriles, along with their Ki values against A1R, A2AR, and IC50 values against PDE10A.\n(§2) Pharmacological evaluation was performed in a radioligand binding competition assay, using A1, A2A, A2B, and A3 human receptors expressed in transfected CHO (A1), HeLa (A2A and A3), and HEK-293 (A2B) according to the procedure reported by Bosch et al.."}, "[2]": {"target": "T2, A1 human adenosine receptor (A1R) (Homo sapiens, UniProt P30542)", "T2 construct": "expressed in transfected cells; host or cells: CHO", "test": "Radioligand binding competition assay, human A1 receptor in transfected CHO cells", "settings": "Cheng-Prusoff approximation", "procedure": "as §1, §2"}}, "data": [{"molecule": "COc1ccc(-c2cc(-c3ccco3)nc(N)c2C#N)cc1", "note": "[Compound 16, 2-amino-6-(furan-2-yl)-4-(4-methoxyphenyl)pyridine-3-carbonitrile]", "values": [{"measurement": "Ki", "setting": "[1]", "result": "41 ± 2", "unit": "nM"}, {"measurement": "Ki", "setting": "[2]", "result": 34, "unit": "nM"}]}]}
